## Ab-14 heavy chain CDR variants: yeast mating affinities

Antigen: PDVDLGDISGINAS, a 14-residue peptide of the SARS-CoV-2 spike HR2 region.

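The starting antibody came from a phage panning campaign against this peptide. These sequences belong to a second round, designed from the earlier measurements on random variants of the parent. Group labels follow the data file (Ctrl: baseline library sampled from a position-specific scoring matrix, with some repeated check sequences; Rand: our label for a block that the file lists under HC and that is probably the random mutants of the ten best first-round binders; GP: Gaussian process model; GPLM: also part of the Gaussian process libraries; HC: hill climbing; Gen: genetic algorithm; Gibbs: Gibbs sampling; a sequence that several methods proposed may carry one label only). In AlphaSeq, yeast of one mating type display the scFv and yeast of the other type display the target. The frequency of each diploid, read from paired DNA barcodes, reflects how well the two displayed proteins bind. Read counts were normalised to the haploid input and turned into Kd by a linear fit to BCL2-family pairs of known affinity, for each replicate. Each pool was mated in six replicate cultures.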

Parent scFv Ab-14: VH joined to VL by a (GGGGS)3 linker. Changes lie in the heavy chain CDRs alone.
VH: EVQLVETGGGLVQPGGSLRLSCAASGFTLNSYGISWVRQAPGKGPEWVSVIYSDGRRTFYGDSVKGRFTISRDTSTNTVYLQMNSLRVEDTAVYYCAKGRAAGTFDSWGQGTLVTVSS
VL: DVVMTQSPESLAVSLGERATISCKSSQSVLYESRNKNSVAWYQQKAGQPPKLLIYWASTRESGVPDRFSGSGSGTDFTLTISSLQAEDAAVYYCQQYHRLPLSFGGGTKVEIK

Changes read parent residue, position, new residue, counted from the first residue of the VH shown.
Variants here have at most six changes.
Each Kd is an estimate from the mating assay, the geometric mean of the replicates in which the pair was seen; lower is stronger.
A pair that was not seen in any replicate is written "nd"; this usually means weak binding, but a binder can also be missed.
Order: sorted from the lowest average up, undetected variants last.
The authors' rule: three or more of the six replicates give a measured affinity, fewer mean a poor binder.

T28S+G61A+R100V+A101V [GPLM_Gen]: 240 pM (6 of 6 replicates; controls 0 of 18).
T28S+S31E+G61S+R100Q+A101P [GP_HC]: 1.1 nM (6 of 6 replicates; controls 0 of 18).
T28S+S31E+R56K+A101Q [GP_Gen]: 1.3 nM (6 of 6 replicates; controls 0 of 18).
T28Q+S31E+G61A+S63Q+R100T [GP_Gibbs]: 1.4 nM (6 of 6 replicates; controls 0 of 18).
T28S+G61A+S63N+R100N+S107T [GP_Gibbs]: 1.5 nM (6 of 6 replicates; controls 0 of 18).
T28E+G61T+R100N [GPLM_Gibbs]: 1.9 nM (6 of 6 replicates; controls 0 of 18).
T28D+R100Q+S107Q [GP_Gen]: 2.7 nM (6 of 6 replicates; controls 0 of 18).
S31E+R100N+S107K [GPLM_Gen]: 2.7 nM (6 of 6 replicates; controls 0 of 18).
T28S+R56H+G61H+A101T [GP_Gibbs]: 2.7 nM (6 of 6 replicates; controls 0 of 18).
T28D+G61H+R100A [GP_Gen]: 3.5 nM (6 of 6 replicates; controls 1 of 18).
T28S+S31D+D106E [GPLM_HC]: 3.6 nM (6 of 6 replicates; controls 0 of 18).
F27E+S53A+G61I [GP_HC]: 4.1 nM (6 of 6 replicates; controls 0 of 18).
T28S+R56K [GPLM_Gen]: 4.8 nM (6 of 6 replicates; controls 1 of 18).
T28K+G61A+A101T [GPLM_Gen]: 7.6 nM (3 of 6 replicates; controls 0 of 18).
N30D+G61Q [Ctrl+GP_HC]: 7.8 nM (8 of 12 replicates; controls 0 of 36).
T28W+S31E+R56H+G61H+A101T [GP_Gibbs]: 11 nM (5 of 6 replicates; controls 0 of 18).
T28S+S31E+G61S+R100E [GPLM_Gen]: 13 nM (5 of 6 replicates; controls 0 of 18).
G26K+T28D+F59A+G61Q [GP_Gibbs]: 17 nM (6 of 6 replicates; controls 0 of 18).
N30K+S53A+D106K [GP_HC]: 17 nM (1 of 6 replicates; controls 0 of 18).
T28S+G61I+R100Q+S107Q [GP_Gen]: 19 nM (6 of 6 replicates; controls 0 of 18).
T28S+G61Q+A101T+S107Y [GPLM_Gen]: 26 nM (6 of 6 replicates; controls 1 of 18).
N30T+S63Q+R100E [Ctrl]: 33 nM (3 of 6 replicates; controls 0 of 18).
T28Q+G61I+A101T [GPLM_Gen]: 43 nM (4 of 6 replicates; controls 0 of 18).
S31D+R56Y+D62G+R100A [Ctrl]: 47 nM (2 of 6 replicates; controls 0 of 18).
F27D+T28E+S31Q [Ctrl]: 49 nM (1 of 6 replicates; controls 0 of 18).
T28E+S31E+T58N [Ctrl]: 65 nM (6 of 6 replicates; controls 2 of 18).
S31E+T58C+G61T+A101F [GPLM_HC]: 76 nM (5 of 6 replicates; controls 2 of 18).
S31E+G61T+A101S+D106T [GP_HC]: 130 nM (1 of 6 replicates; controls 0 of 18).
T28Q+S31E+D106R [GP_HC]: 230 nM (1 of 6 replicates; controls 0 of 18).
T58L+F59Q+R100K+A101N [Ctrl]: 1.7 µM (1 of 6 replicates; controls 0 of 18).
G61A+D62Q [Ctrl]: nd (0 of 6 replicates; controls 0 of 18).
S31D+G61Q+K65V+A102K+T104W [Ctrl]: nd (0 of 6 replicates; controls 1 of 18).
G26M+T28S+G61I+R100K [GP_Gibbs]: nd (0 of 6 replicates; controls 0 of 18).
R56V+F59M+G99H+A101L+G103L [Ctrl]: nd (0 of 6 replicates; controls 0 of 18).
T28C+S53A+G61Y+F105N+D106K [Rand]: nd (0 of 6 replicates; controls 0 of 18).
N30G+G99E+A101N+A102S+D106V [Ctrl]: nd (0 of 6 replicates; controls 0 of 18).
A102H+T104S [Ctrl]: nd (0 of 6 replicates; controls 0 of 18).
T28Q+S63Q+R100Q+A101T+S107E [GP_Gibbs]: nd (0 of 6 replicates; controls 0 of 18).
T28V+F105N [Ctrl]: nd (0 of 6 replicates; controls 0 of 18).
G61A+S63A+R100K+A101E [GP_Gibbs]: nd (0 of 6 replicates; controls 0 of 18).
T28S+R56F+S63E+T104E [Ctrl]: nd (0 of 6 replicates; controls 0 of 18).
G26K+S31E [Ctrl]: nd (0 of 6 replicates; controls 0 of 18).
F59A+G61S+G103A [Ctrl]: nd (0 of 6 replicates; controls 0 of 18).
G61K+R100Q+A101T+S107T [GPLM_Gen]: nd (0 of 6 replicates; controls 0 of 18).
T28N+S31N+R100Q [GPLM_Gen]: nd (0 of 6 replicates; controls 0 of 18).
N30D+F59S+G103S [Ctrl]: nd (0 of 6 replicates; controls 0 of 18).
T28Q+S31D+G61I+S63E+R100K [GP_HC]: nd (0 of 6 replicates; controls 0 of 18).

For reference, 5 entries of the list once more:

{"changes": "S31E+G61T+A101S+D106T", "group": "GP_HC", "Kd": "130 nM", "replicates with signal": "1/6", "empty controls": "0/18"}
{"changes": "T28Q+S31E+G61A+S63Q+R100T", "group": "GP_Gibbs", "Kd": "1.4 nM", "replicates with signal": "6/6", "empty controls": "0/18"}
{"changes": "T28D+R100Q+S107Q", "group": "GP_Gen", "Kd": "2.7 nM", "replicates with signal": "6/6", "empty controls": "0/18"}
{"changes": "S31E+T58C+G61T+A101F", "group": "GPLM_HC", "Kd": "76 nM", "replicates with signal": "5/6", "empty controls": "2/18"}
{"changes": "T28S+S31E+G61S+R100E", "group": "GPLM_Gen", "Kd": "13 nM", "replicates with signal": "5/6", "empty controls": "0/18"}

A sequence measured in both rounds can read differently, since the two assays cover different ranges.
Of ten entries with the parent sequence, four were seen in most replicates (averages 2.2 nM to 240 nM), three in one and three in none, so single entries are noisy.
Where one sequence has several entries in the source, the replicates are pooled.
Nonspecific signal, from three strains lacking the peptide, appeared in 1% of pairings of all heavy chain designs, centred on 120 nM (5% of these signals below 7.0 nM); values are not corrected for it. Also given: how often the same scFv was detected with the empty control strains.

Data: MIT Lincoln Laboratory AlphaSeq set, Li et al. 2023, doi:10.1038/s41467-023-39022-2, as distributed in FLAb.